This data set is described as follows: Solubility limit observed on concentrating the purified protein (precipitation/crystallization). Particulars: concentrating Q column pool, 20 mM Tris pH=7.5, approximately 100 mM NaCl.

B1: Naglu-kif: recombinant human α-N-acetylglucosaminidase expressed in HT1080 cells treated with kifunensine; high mannose glycans (SEQ ID NO: 3); R3 = research batch #3 (protein, listed as Homo sapiens)
chain: DEAREAAAVRALVARLLGPGPAADFSVSVERALAAKPGLDTYSLGGGGAARVRVRGSTGVAAAAGLHRYLRDFCGCHVAWSGSQLRLPRPLPAVPGELTEATPNRYRYYQNVCTQSYSFVWWDWARWEREIDWMALNGINLALAWSGQEAIWQRVYLALGLTQAEINEFFTGPAFLAWGRMGNLHTWDGPLPPSWHIKQLYLQHRVLDQMRSFGMTPVLPAFAGHVPEAVTRVFPQVNVTKMGSWGHFNCSYSCSFLLAPEDPIFPIIGSLFLRELIKEFGTDHIYGADTFNEMQPPSSEPSYLAAATTAVYEAMTAVDTEAVWLLQGWLFQHQPQFWGPAQIRAVLGAVPRGRLLVLDLFAESQPVYTRTASFQGQPFIWCMLHNFGGNHGLFGALEAVNGGPEAARLFPNSTMVGTGMAPEGISQNEVVYSLMAELGWRKDPVPDLAAWVTSFAARRYGVSHPDAGAAWRLLLRSVYNCSGEACRGHNRSPLVRRPSLQMNTSIWYNRSDVFEAWRLLLTSAPSLATSPAFRYDLLDLTRQAVQELVSLYYEEARSAYLSKELASLLRAGGVLAYELLPALDEVLASDSRFLLGSWLEQARAAAVSEAEADFYEQNSRYQLTLWGPEGNILDYANKQLAGLVANYYTPRWRLFLEALVDSVAQGIPFQQHQFDKNVFQLEQAFVLSKQRYPSQPRGDTVDLAKKIFLKYYPRWVAGSW
Consider B1, for which the “protein concentration at which precipitation appeared” value reads like this: (listed as NAGLU-kif) “over 1 mg/mL”; (listed as Naglu kif) 2 mg/mL.
